Target: Mcl-1 (Homo sapiens (Human), UniProt Q07820)
Test: TR-FRET binding assay, FITC-Bak peptide and MBP-tagged Mcl-1
Details: read-out: Ki for Inhibition of Mcl-1 by TR-FRET assay

Sequences of proteins named here, by UniProt entry; tags and fusion partners are left off. Residues count along the entry.
UniProt Q07820, 172-327: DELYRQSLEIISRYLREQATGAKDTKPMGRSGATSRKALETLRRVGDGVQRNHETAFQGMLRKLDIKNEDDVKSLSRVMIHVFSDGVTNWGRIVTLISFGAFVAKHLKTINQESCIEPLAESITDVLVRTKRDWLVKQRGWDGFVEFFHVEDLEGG

SMILES | Ki [pM]
COc1ccc(N2C[C@@H](C)n3c(c(CCCOc4cc(C)c(Cl)c(C)c4)c4ccc(Cl)c(-c5c(C)nn(C)c5C)c43)C2=O)c2c1c(C(=O)O)cn2Cc1cccc(C)n1 [Example 622, (R)-7-(7-chloro-10-(3-(4-chloro-3,5-dimethylphenoxy)propyl)-4-methyl-1-oxo-6-(1,3,5-trimethyl-1H-pyrazol-4-yl)-3,4-dihydropyrazino[1,2-a]indol-2(1H)-yl)-4-methoxy-1-((6-methylpyridin-2-yl)methyl)-1H-indole-3-carboxylic acid] | 760
COc1ccc(N2C[C@@H](C)n3c(c(CCCOc4cc(C)c(Cl)c(C)c4)c4ccc(Cl)c(-c5c(C)nn(C)c5C)c43)C2=O)c2c1c(C(=O)O)cn2Cc1cccc(C)n1 [Example 621, (R)-7-(7-chloro-10-(3-(4-chloro-3,5-dimethylphenoxy)propyl)-4-methyl-1-oxo-6-(1,3,5-trimethyl-1H-pyrazol-4-yl)-3,4-dihydropyrazino[1,2-a]indol-2(1H)-yl)-4-methoxy-1-((6-methylpyridin-2-yl)methyl)-1H-indole-3-carboxylic add] | < 200

— patent US11596639B2, “Substituted indole Mcl-1 inhibitors” (Vanderbilt University, priority 2016, dated 2023)
